For assay [1], the system named is HCT116 dual cells. Put plainly: HCT116 Cell Assay (Lucia luciferase reporter of Type I interferon induction). As to conditions: read-out: HCT116 EC50; 4 h pre-treatment, pBR322/BstNI DNA transfection, Lucia luciferase at 48 h; relative to 10 uM compound 39. The source says: HCT116 dual cells (Invivogen, San Diego, Calif., USA) are derived from the human HCT116 colorectal carcinoma cell line. Cells have been selected for the stable integration of SEAP and Luciferase reporter genes, which expression is under the control of 5 tandem response elements for NF-KB/AP1 and STAT1/STAT2, respectively. The cell line was used to monitor Type I interferon induction and subsequent signaling by measuring the activity of the Lucia luciferase secreted in the culture medium.
HCT116 cells were plated in 96-well plate(s) at 40,000 cells/well in 100 uL DMEM supplemented with 10% FBS and 25 mM Hepes (pH 7.2-7.5). After overnight settling, cells were treated with TREX1i for 4 h (maximum DMSO fraction was 0.1%) before 1.25 ug/mL pBR322/BstNI restriction digest (New England Biolabs, Ipswich, Mass., USA) was transfected with Lipofectamine LTX (ThermoFisher, Grand Island, N.Y., USA), according to product manual recommendations. Briefly, Lipofectamine LTX (0.4 uL/well) was diluted in OptiMEM (5 uL/well). pBR322/BstNI (100 ng/well) was diluted in OptiMEM (5 uL/well) before Plus reagent (0.1 uL/100 ng DNA) was added. After 5 min incubation at room temperature, the DNA mixture was mixed dropwise with the diluted Lipofectamine LTX. After an additional 10 min incubation, the transfection mix (10 uL/well) was added to the cells. […]
On the technique in general: In a reporter assay the amount or activity of a reporter protein is the signal.

Protein sequences, listed by entry. Tags and fused reporters are not part of them.
UniProt Q9BQ50, whole entry: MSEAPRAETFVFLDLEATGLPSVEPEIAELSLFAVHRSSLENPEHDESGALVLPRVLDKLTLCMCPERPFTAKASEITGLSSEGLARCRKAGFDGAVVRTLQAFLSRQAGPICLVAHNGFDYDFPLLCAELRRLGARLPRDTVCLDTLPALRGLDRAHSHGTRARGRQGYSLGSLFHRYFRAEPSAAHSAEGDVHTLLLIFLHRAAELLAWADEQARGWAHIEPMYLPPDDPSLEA
UniProt Q9NSU2, whole entry: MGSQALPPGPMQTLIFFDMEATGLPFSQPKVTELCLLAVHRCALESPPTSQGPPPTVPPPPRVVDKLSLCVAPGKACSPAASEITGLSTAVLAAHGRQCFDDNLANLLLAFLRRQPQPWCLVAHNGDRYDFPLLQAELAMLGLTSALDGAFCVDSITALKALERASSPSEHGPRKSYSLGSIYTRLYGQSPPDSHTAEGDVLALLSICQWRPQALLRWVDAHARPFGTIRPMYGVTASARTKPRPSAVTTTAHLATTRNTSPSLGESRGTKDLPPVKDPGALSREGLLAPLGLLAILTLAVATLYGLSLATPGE

Assay [2] has as its target human TREX2 (residues M44-A279) (Homo sapiens, UniProt Q9BQ50). The assay can be described thus: TREX2 Biochemical Assay (fluorescence, dsDNA substrate degradation). As to conditions: read-out: TREX2 IC50; 2.5 nM TREX2, 60 nM dsDNA substrate, 25 minutes at room temperature. The protocol:
(§1) Degradation of the dsDNA liberates free fluorophore to produce a fluorescent signal. Specifically, 7.5 μL of N-terminally His-Tev tagged human TREX2 (residues M44-A279, expressed in E. coli and purified in house) in reaction buffer (50 mM Tris (pH 7.4), 150 mM NaCl, 2 mM DTT, 0.1 mg/mL BSA, 0.01% (v/v) Tween-20 and 100 mM MgCl2) was added to a 384-well Black ProxiPlate Plus (Perkin Elmer) which already contained compound (150 nL) at varying concentrations as a 10 point dose-response in DMSO. To this was added 7.5 μL of dsDNA substrate (Strand A: 5′ TEX615/GCT AGG CAG 3′; Strand B: 5′ CTG CCT AGC/IAbRQSp (IDT)) in reaction buffer. Final concentrations were 2.5 nM TREX2, 60 nM dsDNA substrate in reaction buffer with 1.0% DMSO (v/v). After 25 minutes at room temperature, reactions were quenched by the addition of 5 μL of stop buffer (same as reaction buffer plus 200 mM EDTA). […] After a 5-minute incubation at room temperature, plates were read in a laser sourced Envision (Perkin-Elmer), measuring fluorescence at 615 nm following excitation w/570 nm light. IC50 values were calculated by comparing the measured fluorescence at 615 nm ratio relative to control wells pre-quenched w/stop buffer (100% inhibition) and no inhibitor (0% inhibition) controls as using non-linear least square four parameter fits and either Genedata or GraphPad Prism (GraphPad Software, Inc.).

Assay [3] concerns the target full length human TREX1 (Homo sapiens, UniProt Q9NSU2). Put plainly: TREX1 Biochemical Assay (fluorescence, dsDNA substrate degradation). As to conditions: read-out: TREX1 IC50; 150 pM TREX1, 60 nM dsDNA substrate, 25 minutes at room temperature. As to the method: as §1, with “tagged full length” for “tagged”, “TREX1 (expressed” for “TREX2 (residues M44-A279, expressed”, “(Integrated DNA Technologies))” for “(IDT))”, “150 pM TREX1,” for “2.5 nM TREX2,”

The results in this text go back to US20220289728A1, “MODULATORS OF TREX1” (Constellation Pharmaceuticals, Inc., priority 2019, published 2022).

For orientation: EC50 means the concentration needed to bring the measured effect to its halfway point. As usually defined, the IC50 is the midpoint of a concentration-inhibition curve.

In the case of `CCOc1cccc(Cl)c1C(c1ccccc1)N(C)c1nc(C(=O)Nc2cnoc2)c(O)c(=O)n1C` (single isomer, unassigned), the EC50 in assay [1] is < 1 µM. For the same compound, the concentration for half-maximal inhibition (IC50) in assay [2] is < 1 µM; in assay [3] it was < 0.1 µM.
